Experimental data taken from ChEMBL document CHEMBL4152383 (J Med Chem, 2018).

Experiment: Selectivity index, ratio of IC50 for human His-thioredoxin-tagged HDAC8 to IC50 for Schistosoma mansoni His-tagged HDAC8

O=C(NO)c1cn(-c2cc(Cl)ccc2Oc2ccc(F)cc2)nn1
Ratio IC50: 4
